In publication PMC10373478, “Exploration and Exploitation Approaches Based on Generative Machine Learning to Identify Potent Small Molecule Inhibitors of α-Synuclein Secondary Nucleation” (Journal of Chemical Theory and Computation, 2023):

Molecular target: α-synuclein (αS) (Homo sapiens, UniProt P37840)
Test: seeded aggregation kinetics (ThT fluorescence), secondary nucleation assay, pH […] °C
Type: biochemical
Settings: read-out: seeded aggregation kinetics (ThT fluorescence), secondary nucleation assay, pH 4

- IC50: 420 nM
Structure (SMILES): Cc1ccc(N2NC(=O)C(=Cc3c(O)[nH]c(=O)[nH]c3=O)C2=O)cc1
